# Assay results taken from patent US7659277B2, “Ubiquitin ligase inhibitors and methods related thereto” (Proteologies, Ltd., priority 2003, dated 2010).
# Chains of the proteins cited; added tags and fusions are not shown.
# UniProt Q00987, whole entry: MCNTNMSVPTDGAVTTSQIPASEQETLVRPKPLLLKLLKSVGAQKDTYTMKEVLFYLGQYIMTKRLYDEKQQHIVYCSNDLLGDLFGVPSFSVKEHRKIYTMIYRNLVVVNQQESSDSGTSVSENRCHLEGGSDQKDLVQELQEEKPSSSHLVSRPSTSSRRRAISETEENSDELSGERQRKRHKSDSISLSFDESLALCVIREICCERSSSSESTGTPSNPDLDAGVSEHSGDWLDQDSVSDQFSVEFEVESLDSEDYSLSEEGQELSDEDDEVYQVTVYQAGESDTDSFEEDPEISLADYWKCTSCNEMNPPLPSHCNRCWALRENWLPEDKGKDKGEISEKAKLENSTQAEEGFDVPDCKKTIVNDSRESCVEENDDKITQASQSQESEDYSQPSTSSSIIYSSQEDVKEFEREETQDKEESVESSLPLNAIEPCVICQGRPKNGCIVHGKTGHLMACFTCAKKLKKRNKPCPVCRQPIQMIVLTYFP
# Legend:
# Assay type in all cases: biochemical
# c-cbl = c-cbl (Homo sapiens, UniProt P22681); assay: Selectivity (% A in 1 μM), ubiquitin ligase activity of c-cbl; details: read-out: Selectivity (% A* in 1 μM) c-cbl
# E2 protein = details: % activity at 1 μM compound; control is related to 100% activity; HTS protocol
# Hmdm2 = Hmdm2 (Homo sapiens, UniProt Q00987); assay: Selectivity (% A in 1 μM), ubiquitin ligase activity of Hmdm2; details: read-out: Selectivity (% A* in 1 μM) Hmdm2
SMILES,remaining activity at 1 µM (c-cbl) [%],Selectivity (% A* in 1 μM) E2 (E2 protein) [%],remaining activity at 1 µM (Hmdm2) [%]
O=C1NC(=O)C(=Cc2ccc(-c3cc(Cl)ccc3Cl)o2)C(=O)N1 [Compound 1],120,100,
C=CCN1C(=O)NC(=O)/C(=C\c2ccccc2)C1=O [Compound 2],90,60,
CN(C)c1ccc(/C=C2/C(=O)NC(=O)N(C3CCCCC3)C2=O)cc1 [Compound 3],82,52,
O=C1NC(=O)N(c2ccccc2)C(=O)/C1=C\c1ccc2c(c1)OCO2 [Compound 4],85,63,
O=C1NC(=O)N(c2ccc(Br)cc2)C(=O)/C1=C/c1ccc(O)cc1 [Compound 5],84,74,
O=C1NC(=S)N(c2ccccc2)C(=O)/C1=C\c1c(Cl)cccc1Cl [Compound 6],116,60,
COc1ccc(N2C(=O)NC(=O)/C(=C\c3ccc(Cl)cc3)C2=O)cc1 [Compound 7],88,84,
COc1ccc(N2C(=O)NC(=O)/C(=C\C=C\c3ccccc3)C2=O)cc1 [Compound 8],97,87,
COc1cc(C=C2C(=O)N(C)C(=S)N(C)C2=O)ccc1O [Compound 9],88,79,
COc1ccccc1N1C(=O)NC(=O)/C(=C\C=C\c2ccccc2)C1=O [Compound 10],97,93,
COc1ccc(/C=C2\C(=O)NC(=S)N(c3ccccc3)C2=O)cc1 [Compound 11],95,79,
C=CCN1C(=O)NC(=O)/C(=C/c2ccc(F)cc2)C1=O [Compound 12],102,90,
O=C1C(=Cc2ccco2)C(=O)N(c2ccccc2)C(=S)N1c1ccccc1 [Compound 13],75,54,
CCCCCCOc1ccc(C=C2C(=O)NC(=S)NC2=O)cc1 [Compound 15],106,64,
COc1cc(N/C=C2/C(=O)NC(=S)N(c3cccc(C)c3)C2=O)cc(OC)c1 [Compound 16],166,109,
O=C1C=CC(=O)N1c1ccccc1Cl [Compound 18],105,75,
O=C1C=CC(=O)N1c1ccc(Cl)cc1 [Compound 19],107,78,
O=C1C=CC(=O)N1c1ccc(OC(F)(F)C(F)F)c(N2C(=O)C=CC2=O)c1 [Compound 20],112,83,
O=C1S/C(=C/c2ccc(-c3ccc([N+](=O)[O-])cc3Cl)o2)C(=O)N1c1ccccc1 [Compound 27],122,112,122
O=C(O)c1ccc(-c2ccc(/C=c3\sc4nc5ccccc5n4c3=O)o2)cc1 [Compound 28],111,105,
N=C1NC(=O)/C(=C\c2ccc(-c3ccc(I)cc3)o2)S1 [Compound 29],159,50,
O=c1/c(=C/c2ccc(N3CCOCC3)cc2)sc2nc3ccccc3n12 [Compound 32],122,96,
S=C(c1ccc(-c2cc(Cl)ccc2Cl)o1)N1CCCCC1 [Compound 35],106,118,
O=C1C(=Cc2ccc(-c3ccc(Br)cc3)o2)C(=O)c2ccccc21 [Compound 38],432,89,
CN(C)c1ccc(/C=C2\C(=O)N(c3ccc([N+](=O)[O-])cc3)N=C2N2CCOCC2)cc1 [Compound 42],314,57,

SMILES,remaining activity at 1 µM (c-cbl) [%],Selectivity (% A* in 1 μM) E2 (E2 protein) [%],remaining activity at 1 µM (Hmdm2) [%]
Cc1ccc2nsnc2c1/N=C/c1c(O)ccc2ccccc12 [Compound 53],134,99,
Cc1ccc(/N=C/c2cc(Br)cc(Br)c2O)c(C)c1 [Compound 54],135,44,
COc1ccc(/C=N/c2ccc(Nc3ccccc3)cc2)c2ccccc12 [Compound 55],70,31,
Cc1ccc(/N=C/c2cccc(O)c2O)cc1C [Compound 56],277,88,
OCc1cccc(/N=C/c2cccc(O)c2O)c1 [Compound 57],153,259,
CC(C)(C)c1ccc(O)c(/N=C/C=C/c2cccc([N+](=O)[O-])c2)c1 [Compound 59],115,90,
Cc1cc([N+](=O)[O-])ccc1/N=C/c1ccc[nH]1 [Compound 70],127,98,
Cc1c(C(=O)/C=C/c2ccccc2)c2cc(O)ccc2n1C [Compound 75],110,77,
Cc1c(C(=O)/C=C/c2cccs2)c2cc(O)ccc2n1C [Compound 76],96,53,
O=[N+]([O-])c1ccc(CN2CCN(c3cccc(Cl)c3)CC2)o1 [Compound 80],100,61,
CCCCOc1ccc(NC(=S)N2CCn3c4c(c(=O)c5cc(C)ccc53)CCC42)cc1 (centres unmarked) [Compound 81],66,80,
O=c1nc(-c2ccc(Br)cc2)cc(-c2ccc([N+](=O)[O-])cc2)[nH]1 [Compound 84],97,54,
O=C(O)COc1ccc2c(c1)oc(=O)c1ccccc12 [Compound 85],88,55,
Cc1cc(O)c(C(=O)/C=C/c2cccc(I)c2)c(=O)o1 [Compound 87],63,80,
O=C(NC(C(Cl)(Cl)Cl)S(=O)(=O)c1ccccc1)c1ccc(Cl)cc1Cl (centres unmarked) [Compound 88],112,94,
O=C1c2ccccc2-c2nc3nonc3nc21 [Compound 91],151,80,
O=c1oc2ccccc2c(O)c1C(=S)Nc1ccccc1 [Compound 96],363,73,
O=C(Nc1cccc2c(NC(=O)C3C4CCCCC43)cccc12)C1C2CCCCC21 (centres unmarked) [Compound 97],148,89,
Cc1cc(OC(=O)Cn2c(=O)sc3ccccc32)ccc1Cl [Compound 103],89,92,
COc1ccc(CC(C)NCc2ccccc2Cl)cc1 (centres unmarked) [Compound 107],101,384,
O=C1NC(=O)/C(=C\c2ccc(-c3ccc(F)cc3)o2)S1 [Compound 108],135,104,
C=CCN1C(=O)/C(=C/c2c3ccccc3cc3ccccc23)SC1=S [Compound 109],122,113,
CN(C)c1ccc(/C=C2\SC(=S)N(C3CCS(=O)(=O)C3)C2=O)cc1 (centres unmarked) [Compound 110],107,56,
COc1ccc(NC(=O)c2cc3cccc(N)c3cc2O)cc1 [Compound 114],96,95,
CN1C(=O)/C(=C\c2ccc(-c3cccc([N+](=O)[O-])c3)o2)SC1=S [Compound 115],98,87,
